# Cyclic peptide permeability, from CycPeptMPDB

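Conditions beyond the assay type are not listed; see the original paper. The list need not hold all peptides of the study. Peptides that the database sets to -10, its floor, are left out.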

PAMPA measures passive passage through an artificial lipid membrane.
Values are log10 P with P in cm/s, so -5 is more permeable than -7.

| SMILES | PAMPA (log10 cm/s) |
|---|---|
| CC(=O)N1CCC[C@@H]1C(=O)N(C)[C@@H](CC(C)C)C(=O)N[C@@H]1C(=O)N[C@H](CC(C)C)C(=O)N[C@H](CC(C)C)C(=O)N(C)[C@H](CC(C)C)C(=O)N[C@@H](C)C(=O)N[C@@H](CC(C)C)C(=O)N2CCC[C@H]2C(=O)O[C@@H]1C | -5.93 |
| CC(=O)N1CCC[C@@H]1C(=O)N(C)[C@H](CC(C)C)C(=O)N[C@@H]1C(=O)N(C)[C@H](CC(C)C)C(=O)N(C)[C@H](CC(C)C)C(=O)N[C@H](CC(C)C)C(=O)N(C)[C@@H](C)C(=O)N[C@H](CC(C)C)C(=O)N2CCC[C@H]2C(=O)O[C@@H]1C | -5.19 |
| CC(=O)N1CCC[C@@H]1C(=O)N(C)[C@H](CC(C)C)C(=O)N[C@@H]1C(=O)N[C@H](CC(C)C)C(=O)N[C@@H](CC(C)C)C(=O)N[C@H](CC(C)C)C(=O)N(C)[C@H](C)C(=O)N[C@H](CC(C)C)C(=O)N2CCC[C@H]2C(=O)O[C@@H]1C | -6.37 |
| CC(=O)N1CCC[C@H]1C(=O)N(C)[C@@H](CC(C)C)C(=O)N[C@@H]1C(=O)N[C@H](CC(C)C)C(=O)N[C@@H](CC(C)C)C(=O)N(C)[C@@H](CC(C)C)C(=O)N[C@@H](C)C(=O)N[C@@H](CC(C)C)C(=O)N2CCC[C@@H]2C(=O)O[C@@H]1C | -5.19 |
| CC(=O)N1CCC[C@H]1C(=O)N(C)[C@@H](CC(C)C)C(=O)N[C@@H]1C(=O)N[C@@H](CC(C)C)C(=O)N(C)[C@@H](CC(C)C)C(=O)N(C)[C@H](CC(C)C)C(=O)N[C@@H](C)C(=O)N[C@H](CC(C)C)C(=O)N2CCC[C@H]2C(=O)O[C@@H]1C | -6.21 |
| CC(=O)N1CCC[C@@H]1C(=O)N(C)[C@@H](CC(C)C)C(=O)N[C@@H]1C(=O)N[C@H](CC(C)C)C(=O)N[C@@H](CC(C)C)C(=O)N[C@@H](CC(C)C)C(=O)N(C)[C@@H](C)C(=O)N[C@H](CC(C)C)C(=O)N2CCC[C@H]2C(=O)O[C@@H]1C | -6.15 |
| CC(=O)N1CCC[C@H]1C(=O)N[C@@H]1C(=O)N[C@H](CC(C)C)C(=O)N[C@@H](CC(C)C)C(=O)N[C@H](CC(C)C)C(=O)N[C@@H](CC(C)C)C(=O)N[C@H](C)C(=O)N[C@@H](CC(C)C)C(=O)N2CCC[C@@H]2C(=O)O[C@@H]1C | -6.69 |
| CC(=O)N1CCC[C@@H]1C(=O)N(C)[C@@H](CC(C)C)C(=O)N[C@@H]1C(=O)N(C)[C@@H](CC(C)C)C(=O)N[C@@H](CC(C)C)C(=O)N[C@@H](CC(C)C)C(=O)N[C@@H](C)C(=O)N[C@@H](CC(C)C)C(=O)N2CCC[C@@H]2C(=O)O[C@@H]1C | -7.29 |
| CC(=O)N1CCC[C@@H]1C(=O)N(C)[C@H](CC(C)C)C(=O)N[C@@H]1C(=O)N(C)[C@@H](CC(C)C)C(=O)N(C)[C@@H](CC(C)C)C(=O)N[C@H](CC(C)C)C(=O)N(C)[C@@H](C)C(=O)N[C@H](CC(C)C)C(=O)N2CCC[C@@H]2C(=O)O[C@@H]1C | -5.63 |
| CC(=O)N1CCC[C@H]1C(=O)N(C)[C@@H](CC(C)C)C(=O)N[C@@H]1C(=O)N(C)[C@@H](CC(C)C)C(=O)N(C)[C@H](CC(C)C)C(=O)N(C)[C@H](CC(C)C)C(=O)N(C)[C@@H](C)C(=O)N[C@H](CC(C)C)C(=O)N2CCC[C@H]2C(=O)O[C@@H]1C | -5.30 |
| CC(=O)N1CCC[C@@H]1C(=O)N(C)[C@H](CC(C)C)C(=O)N[C@@H]1C(=O)N[C@H](CC(C)C)C(=O)N[C@@H](CC(C)C)C(=O)N[C@H](CC(C)C)C(=O)N(C)[C@@H](C)C(=O)N[C@@H](CC(C)C)C(=O)N2CCC[C@H]2C(=O)O[C@@H]1C | -5.50 |
| CC(=O)N1CCC[C@@H]1C(=O)N(C)[C@@H](CC(C)C)C(=O)N[C@@H]1C(=O)N(C)[C@H](CC(C)C)C(=O)N(C)[C@H](CC(C)C)C(=O)N[C@H](CC(C)C)C(=O)N[C@@H](C)C(=O)N[C@H](CC(C)C)C(=O)N2CCC[C@@H]2C(=O)O[C@@H]1C | -5.70 |
| CC(=O)N1CCC[C@@H]1C(=O)N(C)[C@H](CC(C)C)C(=O)N[C@@H]1C(=O)N[C@H](CC(C)C)C(=O)N(C)[C@H](CC(C)C)C(=O)N(C)[C@@H](CC(C)C)C(=O)N(C)[C@@H](C)C(=O)N[C@@H](CC(C)C)C(=O)N2CCC[C@H]2C(=O)O[C@@H]1C | -5.59 |
| CC(=O)N1CCC[C@H]1C(=O)N(C)[C@@H](CC(C)C)C(=O)N[C@@H]1C(=O)N(C)[C@H](CC(C)C)C(=O)N(C)[C@H](CC(C)C)C(=O)N[C@@H](CC(C)C)C(=O)N(C)[C@H](C)C(=O)N[C@@H](CC(C)C)C(=O)N2CCC[C@@H]2C(=O)O[C@@H]1C | -5.57 |
| CC(=O)N1CCC[C@@H]1C(=O)N(C)[C@H](CC(C)C)C(=O)N[C@@H]1C(=O)N[C@@H](CC(C)C)C(=O)N[C@@H](CC(C)C)C(=O)N[C@@H](CC(C)C)C(=O)N(C)[C@@H](C)C(=O)N[C@H](CC(C)C)C(=O)N2CCC[C@@H]2C(=O)O[C@@H]1C | -6.66 |
| CC(=O)N1CCC[C@@H]1C(=O)N(C)[C@H](CC(C)C)C(=O)N[C@@H]1C(=O)N(C)[C@@H](CC(C)C)C(=O)N[C@@H](CC(C)C)C(=O)N[C@@H](CC(C)C)C(=O)N[C@H](C)C(=O)N[C@H](CC(C)C)C(=O)N2CCC[C@@H]2C(=O)O[C@@H]1C | -6.95 |

Source: CycPeptMPDB (Li et al. 2023), which took these values from Kelly et al. 2021, doi:10.1021/jacs.0c06115.